Drawing on ChEMBL document CHEMBL2086356, “Identification of a novel family of BRAF(V600E) inhibitors” (J Med Chem, 2012), this text covers IC50 for 1 compound.

By UniProt entry, the sequences of proteins in these tests, tags left out. Residues count along the entry.
UniProt P15056, whole entry: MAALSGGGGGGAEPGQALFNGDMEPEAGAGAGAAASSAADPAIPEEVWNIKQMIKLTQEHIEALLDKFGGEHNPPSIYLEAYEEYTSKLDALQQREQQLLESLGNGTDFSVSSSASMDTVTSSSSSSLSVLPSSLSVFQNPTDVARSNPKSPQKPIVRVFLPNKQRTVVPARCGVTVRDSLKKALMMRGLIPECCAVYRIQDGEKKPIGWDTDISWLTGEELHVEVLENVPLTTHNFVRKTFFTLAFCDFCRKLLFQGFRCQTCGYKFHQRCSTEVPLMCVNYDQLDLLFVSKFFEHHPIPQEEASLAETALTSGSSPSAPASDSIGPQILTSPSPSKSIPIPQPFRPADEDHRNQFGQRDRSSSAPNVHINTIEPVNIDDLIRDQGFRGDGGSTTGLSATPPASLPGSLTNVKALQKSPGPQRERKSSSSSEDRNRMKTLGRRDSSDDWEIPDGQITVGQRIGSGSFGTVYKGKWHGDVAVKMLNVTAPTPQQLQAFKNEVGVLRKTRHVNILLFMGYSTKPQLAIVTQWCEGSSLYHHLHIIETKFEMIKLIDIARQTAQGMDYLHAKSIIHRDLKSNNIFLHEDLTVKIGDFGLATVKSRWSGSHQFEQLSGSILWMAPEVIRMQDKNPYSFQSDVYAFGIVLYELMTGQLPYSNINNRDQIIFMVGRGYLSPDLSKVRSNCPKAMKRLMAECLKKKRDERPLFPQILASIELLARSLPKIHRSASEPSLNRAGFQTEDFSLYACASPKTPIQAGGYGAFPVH
UniProt P15056, 2-766 V600E limits assumed: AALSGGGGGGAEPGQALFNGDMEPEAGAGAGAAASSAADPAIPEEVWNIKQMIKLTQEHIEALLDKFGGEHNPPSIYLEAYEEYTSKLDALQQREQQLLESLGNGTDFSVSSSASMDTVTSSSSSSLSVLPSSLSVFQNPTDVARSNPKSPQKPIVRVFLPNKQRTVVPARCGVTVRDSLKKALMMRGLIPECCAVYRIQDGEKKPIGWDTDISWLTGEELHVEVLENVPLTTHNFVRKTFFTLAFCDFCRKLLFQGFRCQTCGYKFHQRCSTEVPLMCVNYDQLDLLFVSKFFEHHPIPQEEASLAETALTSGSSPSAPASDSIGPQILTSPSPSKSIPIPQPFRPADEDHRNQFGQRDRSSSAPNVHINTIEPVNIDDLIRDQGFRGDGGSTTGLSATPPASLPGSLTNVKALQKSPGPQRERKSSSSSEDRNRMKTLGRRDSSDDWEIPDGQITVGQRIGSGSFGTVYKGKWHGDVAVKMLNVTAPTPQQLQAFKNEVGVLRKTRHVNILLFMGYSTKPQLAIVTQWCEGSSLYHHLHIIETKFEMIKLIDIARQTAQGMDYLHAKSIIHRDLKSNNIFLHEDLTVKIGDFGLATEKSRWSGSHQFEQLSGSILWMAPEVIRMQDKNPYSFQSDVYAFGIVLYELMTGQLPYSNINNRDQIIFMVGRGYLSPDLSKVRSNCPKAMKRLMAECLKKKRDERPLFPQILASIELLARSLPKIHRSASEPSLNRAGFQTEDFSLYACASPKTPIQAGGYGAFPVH

Experiment [1] concerns the target Serine/threonine-protein kinase B-raf (Homo sapiens, UniProt P15056). Nature of the experiment: Inhibition of human 6x-His tagged wild type BRAF expressed in Sf9 cells by ELISA based kinase assay. In a few lines: (§1)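 Enzyme at about 28–30 nM was preincubated with compound for 1 h at RT, then added to glutathione-plate-bound GST-MEK-His (50 μg/mL). Reaction in HEPES pH 7.0 with MgCl2 and 100 μM ATP ran 30 min at 37 °C. Read-out was anti-phospho-MEK1/2 then HRP chemiluminescence. Run in duplicate or triplicate; IC50 from a four-parameter logistic fit.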
(ELISA stands for enzyme-linked immunosorbent assay.)

Experiment [2] concerns the target Serine/threonine-protein kinase B-raf (Homo sapiens, UniProt P15056, V600E). In words: Inhibition of human 6x-His tagged BRAF V600E mutant expressed in Sf9 cells by ELISA based kinase assay. In a few lines:
as §1

Each structure is given as a SMILES string.

Broadly, the IC50 is the midpoint of a concentration-inhibition curve.

As for `O=S(=O)(Nc1cc(Sc2nc[nH]n2)c(O)c2ccccc12)c1cccs1`, the IC50 in experiment [1] came out at 260 nM; in experiment [2] it was 100 nM.
